## Antibody variant affinities, Ab-14 light chain, assay B

From the AlphaSeq antibody data of Li et al. 2023 (doi:10.1038/s41467-023-39022-2), copy in the FLAb collection.

Antigen: PDVDLGDISGINAS, a 14-residue peptide of the SARS-CoV-2 spike HR2 region.

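The parent was found by panning a naive human phage display library on the peptide. This is the validation round: designs drawn from the data on random variants, tested in the same kind of assay. Group labels follow the data file (En: ensemble of fine-tuned language models; GP: Gaussian process model; HC: hill climbing; Gen: genetic algorithm; Gibbs: Gibbs sampling; a sequence that several methods proposed may carry one label only). In AlphaSeq, yeast of one mating type display the scFv and yeast of the other type display the target. After mating in shaken culture at 30 °C for 16 h, diploids were selected and their barcode pairs sequenced. Each replicate has its own calibration line, from reference interactions of the BCL2 family. Mating was done six times.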

Parent: Ab-14, a human scFv built as VH, three GGGGS repeats, VL. Only the CDRs of the light chain vary.
VH: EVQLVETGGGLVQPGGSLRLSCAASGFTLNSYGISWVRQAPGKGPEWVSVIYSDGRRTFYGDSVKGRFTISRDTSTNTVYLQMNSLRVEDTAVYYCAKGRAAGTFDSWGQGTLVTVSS
VL: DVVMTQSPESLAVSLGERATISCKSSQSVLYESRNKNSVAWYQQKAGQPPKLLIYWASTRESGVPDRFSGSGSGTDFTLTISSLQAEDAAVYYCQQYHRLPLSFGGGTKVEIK

The parent's light chain CDRs are KSSQSVLYESRNKNSVA, WASTRES, QQYHRLPLS; each variant's own CDRs replace them letter for letter.
This list holds designs with more than six substitutions.
Kd is apparent (estimated from mating counts) and averaged on the log scale over replicates with a signal. Smaller is tighter.
Empty control strains, which show no peptide, gave a signal in 4% of pairings with all light chain designs; the median was 430 nM and 95% of these signals were weaker than 38 nM. No background was subtracted. The control count says in how many pairings with the empty strains this scFv gave a signal.
Values of this round are not directly comparable with the first-round values of the same sequences.
The authors averaged sequences with at least three values out of six and counted those with two or fewer as poor binders.

With KLVQFMNRGTHHTSNIA / DAALREE / QQYNRLPLA [En_Gen] the result was 5.2 nM (6 of 6 replicates; controls 0 of 18).
With KVSDSMAFLQRNRNSVA / DNSTRGS / QQYHRLPLS [En_HC] the result was 2.1 nM (6 of 6 replicates; controls 0 of 18).
With WLSMSVMLWSRNVNSVA / SASTREW / QQYHRLPLS [GP_Gibbs] the result was 1.8 µM (1 of 6 replicates; controls 0 of 18).
With KISGYLNKESKIKNSVA / EMVNRES / QQYDRLPLS [En_HC] the result was 11 nM (6 of 6 replicates; controls 1 of 18).
With MISQVLNMATKTGNNVA / DLEERED / QQYFRLPLS [En_Gen] the result was 23 nM (4 of 6 replicates; controls 0 of 18).
With KIDISELGESRNWNSVA / NASQREE / QQYHRLPLS [GP_Gibbs] the result was 550 pM (6 of 6 replicates; controls 1 of 18).
With KLSFSHQVESINKSNVA / EMVTRES / QQYDRLPLS [En_HC] the result was 7.2 nM (6 of 6 replicates; controls 1 of 18).
With SIRQVTCDNQATHSNIA / DATQIEP / QQYSRLPLS [En_Gibbs] the result was 1.7 nM (6 of 6 replicates; controls 4 of 18).
With KLSQSVWMESRNKWNVA / SASYRES / QQYHRLPLS [GP_Gibbs] the result was 2.1 nM (6 of 6 replicates; controls 1 of 18).
With MFSSLMEYGSRYRNSVA / QASVREN / QQYHWLPLS [En_HC] the result was 230 nM (5 of 6 replicates; controls 1 of 18).
With MFNMGVGIEDMKWNSVA / SADVRAF / QQYGRLPFS [En_Gibbs] the result was 7.3 nM (6 of 6 replicates; controls 3 of 18).
With MLTMFPNEPTGDSSNIA / DTNQLNT / QQYQRLPFM [En_Gibbs] the result was 7.4 nM (6 of 6 replicates; controls 0 of 18).
With RIADMMNRDGYRQQAVA / EDSVRWD / QQYAQLPLA [En_Gibbs] the result was 390 nM (5 of 6 replicates; controls 3 of 18).
With TLSDTVMQGSYYRNSVA / QESTRAD / QQYHHLPLS [En_HC] the result was 1.5 nM (6 of 6 replicates; controls 1 of 18).
With MISQLYNMGTFAINSVA / QASVRNE / QQYDRLPLT [En_Gen] the result was 200 nM (3 of 6 replicates; controls 1 of 18).
With ILEENSDDITEIGNSIA / ETNMVRS / QQYHRLPLA [En_Gibbs] the result was 9.1 nM (6 of 6 replicates; controls 1 of 18).
With KLSQSGWMESRNVNNVA / EASQRES / QQYHRLPLS [GP_Gibbs] the result was 1.1 nM (6 of 6 replicates; controls 1 of 18).
With NMGQSMLGESRNKNSVA / HQSTRED / QHYHRLPLS [En_HC] the result was 5.0 nM (6 of 6 replicates; controls 2 of 18).
With ILYESVGTLSRNKHSVA / DNSTRES / QQYDRLPLS [En_HC] the result was 25 nM (6 of 6 replicates; controls 0 of 18).
With HVSESVFAQTKMKNSVA / ENSTRES / QQYDRLPLS [En_HC] the result was 650 nM (5 of 6 replicates; controls 2 of 18).
With KMSQSELYEDRNSNAVA / QASQRMS / QQYHRLPLS [GP_Gibbs] the result was 580 pM (6 of 6 replicates; controls 0 of 18).
With KVKEDLNMGLKFQSSVA / SGAHREH / QQYYRLPLG [En_Gibbs] the result was 3.2 nM (6 of 6 replicates; controls 2 of 18).
With NFSMSAAEFVNEDSSIA / DAEISYD / QQYHRLPLV [En_Gibbs] the result was 52 nM (4 of 6 replicates; controls 2 of 18).
With KLLQSVQYGMRALNSVA / QMETRED / QQYHRLPLS [En_HC] the result was 15 nM (6 of 6 replicates; controls 1 of 18).
With KLTTTMRFEQKKKNNIA / EVTTRTK / QQYNRLPLA [En_Gen] the result was 49 nM (5 of 6 replicates; controls 0 of 18).
With KLSMLGLYGQRNKNSVA / EASTRED / QQYHRLPLS [GP_Gibbs] the result was 550 pM (6 of 6 replicates; controls 1 of 18).
With KLHMSTGYESRNKDSIA / DNSTRGR / QQYHRLPLS [En_HC] the result was 870 pM (5 of 6 replicates; controls 0 of 18).
With KISTQIPEFEMDDNAIA / MATLRET / QQYQRLPLS [En_Gibbs] the result was 22 nM (6 of 6 replicates; controls 3 of 18).
With KSSISYDYEDRNQNSVA / SASQREH / QQYHRLPLS [GP_Gibbs] the result was 1.3 nM (6 of 6 replicates; controls 1 of 18).
With KWDQSVDGESRNKNSVA / QASQREW / QQYHRLPLS [GP_Gibbs] the result was 2.6 nM (6 of 6 replicates; controls 0 of 18).
With TISQVMNALTRHGNNVA / DLTERED / QQYFRLPLS [En_Gen] the result was 2.8 nM (6 of 6 replicates; controls 1 of 18).
With TISASTYWESFNKNSVA / QTSTREE / QDYDRLPLS [En_HC] the result was 180 nM (5 of 6 replicates; controls 0 of 18).
With HLHTIMYTEGIGTNSIA / DANLHVD / QQYFRLPIM [En_Gibbs] the result was 15 nM (6 of 6 replicates; controls 1 of 18).
With KLEWSDLLESRNKQSVA / QASQRMS / QQYHRLPLS [GP_Gibbs] the result was 470 pM (6 of 6 replicates; controls 1 of 18).
With IISGSALMESRNKNSVA / NAETREY / QHYDRLPLS [En_HC] the result was 180 nM (5 of 6 replicates; controls 2 of 18).
With SVTRYTDENGLKMSSVA / GAGNRMT / QQYHRLPLT [En_Gibbs] the result was 2.6 nM (6 of 6 replicates; controls 1 of 18).
With KIGMTLNTLMHQINNVA / DLVEREN / QQYFRLPLS [En_Gen] the result was 1.6 nM (6 of 6 replicates; controls 1 of 18).
With IITQSVMQESRNKSNVA / NTAEREP / QQYDRLPLI [En_HC] the result was 200 nM (6 of 6 replicates; controls 1 of 18).
With TLVGNIQGGGWMIKSVA / DAVQRVN / QQYYRLPLS [En_Gibbs] the result was 19 nM (5 of 6 replicates; controls 2 of 18).
With MISQVMNSLTHTGNNVA / DLQEREH / QQYFRLPLS [En_Gen] the result was 29 nM (4 of 6 replicates; controls 0 of 18).
With MISDLMLYGSRKNNPIA / NAETREY / QQYHRLPLE [En_HC] the result was 3.0 nM (6 of 6 replicates; controls 3 of 18).
With SLMQVGGYESNEHNSIA / DLRTRES / QQYHRLPLS [En_HC] the result was 8.3 nM (6 of 6 replicates; controls 0 of 18).
With KMSQSELYESQNSNSVA / HASQRMS / QQYHRLPLS [GP_Gibbs] the result was 890 pM (6 of 6 replicates; controls 0 of 18).
With VMQMDNDRANDATKAIA / DVTMREK / QQYNRLPLM [En_Gibbs] the result was 1.5 nM (6 of 6 replicates; controls 1 of 18).
With KFSQSELYGERDKNSVA / NASQRLS / QQYHRLPLS [GP_Gibbs] the result was 1.1 nM (6 of 6 replicates; controls 1 of 18).
With KFFQSQLYEQRNQNSVA / SASYRMS / QQYHRLPLS [GP_Gibbs] the result was 2.1 nM (6 of 6 replicates; controls 1 of 18).
With KVSQSMLYQSRNKNNVA / EASTREQ / QSYHRLPLS [GP_Gibbs] the result was 5.4 nM (6 of 6 replicates; controls 0 of 18).

Repeated from above, the 6 best binders with a signal in all replicates:

CDR-L1	CDR-L2	CDR-L3	group	Kd (apparent)	replicates with signal	control signals
KLEWSDLLESRNKQSVA	QASQRMS	QQYHRLPLS	GP_Gibbs	470 pM	6 of 6	1 of 18
KIDISELGESRNWNSVA	NASQREE	QQYHRLPLS	GP_Gibbs	550 pM	6 of 6	1 of 18
KLSMLGLYGQRNKNSVA	EASTRED	QQYHRLPLS	GP_Gibbs	550 pM	6 of 6	1 of 18
KMSQSELYEDRNSNAVA	QASQRMS	QQYHRLPLS	GP_Gibbs	580 pM	6 of 6	0 of 18
KMSQSELYESQNSNSVA	HASQRMS	QQYHRLPLS	GP_Gibbs	890 pM	6 of 6	0 of 18
KLSQSGWMESRNVNNVA	EASQRES	QQYHRLPLS	GP_Gibbs	1.1 nM	6 of 6	1 of 18